# Source: ChEMBL document CHEMBL1126581 (J Med Chem, 1993)
# By UniProt entry, the sequences of proteins in these tests, tags left out. Residues count along the entry.
# UniProt P00747, 97-580 limits assumed: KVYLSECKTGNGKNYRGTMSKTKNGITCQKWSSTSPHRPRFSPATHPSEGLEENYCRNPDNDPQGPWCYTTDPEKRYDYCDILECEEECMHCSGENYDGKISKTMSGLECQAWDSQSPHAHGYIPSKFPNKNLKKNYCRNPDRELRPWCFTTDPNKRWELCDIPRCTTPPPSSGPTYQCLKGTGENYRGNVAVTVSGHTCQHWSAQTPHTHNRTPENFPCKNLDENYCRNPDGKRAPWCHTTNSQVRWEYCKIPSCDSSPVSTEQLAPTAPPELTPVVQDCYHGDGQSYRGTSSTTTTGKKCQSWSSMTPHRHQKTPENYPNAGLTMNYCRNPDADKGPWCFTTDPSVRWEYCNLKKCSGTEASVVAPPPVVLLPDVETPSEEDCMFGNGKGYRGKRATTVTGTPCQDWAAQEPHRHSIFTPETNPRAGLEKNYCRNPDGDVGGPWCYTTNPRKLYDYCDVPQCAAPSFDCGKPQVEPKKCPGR
# UniProt P00747, 581-810 limits assumed: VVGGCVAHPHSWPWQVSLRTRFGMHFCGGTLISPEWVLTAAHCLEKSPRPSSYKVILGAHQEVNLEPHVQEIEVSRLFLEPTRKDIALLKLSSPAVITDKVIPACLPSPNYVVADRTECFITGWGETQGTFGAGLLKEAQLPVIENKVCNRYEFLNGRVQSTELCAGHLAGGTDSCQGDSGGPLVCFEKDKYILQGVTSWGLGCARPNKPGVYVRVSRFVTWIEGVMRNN
# Target: Plasminogen (Homo sapiens, UniProt P00747)
# Test: Inhibitory activity against plasmin
# Summary of the method: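 Amidolytic assay at 25 °C in 0.1 M Tris-HCl pH 7.4. Human plasmin (270 ng/mL) with substrate H-D-Val-Leu-Lys-pNA (0.278 mg/mL). p-Nitroaniline release read at 405 nm. Peptide preincubated 5 min. Varying peptide concentrations gave concentration-response curves. IC50 taken as the concentration giving 50% inhibition relative to blank control.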
smiles,measurement,value
N=C(N)NCCC[C@@H](C=O)NC(=O)[C@@H]1CCCN1C(=O)[C@H]1Cc2ccccc2CN1,IC50,370 nM
